The text below walks through data of PubChem BioAssay AID434977 (Johns Hopkins Ion Channel Center, 2010).

The structures appear in SMILES notation. Only a part is listed here, and it is no random draw. Some tests of the compounds listed are not included; inactive here does not mean inactive elsewhere. Calls of active or inactive are those of the source.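 Rule for the calls: active = calcium signal rise above buffer-control mean plus 5 SD in both duplicates, and also a hit in the primary screen; inactive = the rest.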

In this assay the target is Short transient receptor potential channel 4 (Mus musculus) (UniProt Q9QUQ5). Kind of assay: calcium flux activators in TRPC4/5HT1a cells, counter-screen for TRPC4 activator project, cell-based, second counter screen, HEK293 TRPC4/5HT1a, Fluo-4 (AID 434977). To be noted: Fluo-4 calcium flux, at 10 µM.
Consider `CN(C)c1ccc(C(=O)NCC2(N(C)C)CCCCC2)cc1`, for which the result was inactive.
